Experimental findings from ChEMBL document CHEMBL1127459, “Synthesis and biological activity of 3-[2-(dimethylamino)ethyl]-5-[(1,1-dioxo-5-methyl-1,2,5-thiadiazolidin- 2-yl)-methyl]-1H-indole and analogues: agonists for the 5-HT1D receptor” (J Med Chem, 1994) are described below.

The chains behind the UniProt entries cited, without tags or fusion partners.
UniProt P14842, whole entry: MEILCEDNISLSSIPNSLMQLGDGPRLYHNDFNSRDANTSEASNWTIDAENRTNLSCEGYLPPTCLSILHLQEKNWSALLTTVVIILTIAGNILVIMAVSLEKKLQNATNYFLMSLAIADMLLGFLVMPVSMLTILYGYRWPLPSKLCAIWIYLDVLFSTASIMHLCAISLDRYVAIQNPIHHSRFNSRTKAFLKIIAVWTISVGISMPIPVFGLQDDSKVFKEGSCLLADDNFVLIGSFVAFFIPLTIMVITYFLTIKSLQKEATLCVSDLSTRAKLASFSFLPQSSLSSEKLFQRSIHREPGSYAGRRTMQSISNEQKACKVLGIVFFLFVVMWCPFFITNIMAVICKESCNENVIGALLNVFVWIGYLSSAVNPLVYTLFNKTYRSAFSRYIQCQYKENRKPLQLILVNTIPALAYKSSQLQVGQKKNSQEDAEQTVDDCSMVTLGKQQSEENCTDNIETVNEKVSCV

As usually defined, the IC50 is the point on the concentration scale where inhibition reaches its midpoint.

The experiment addresses 5-hydroxytryptamine receptor 2A (Rattus norvegicus, UniProt P14842). As to the kind of experiment: Displacement of [3H]DOB binding to 5-hydroxytryptamine 2A receptor from rat cortex homogenate.

For `CNS(=O)(=O)Cc1ccc2[nH]cc(CCN(C)C)c2c1`, the IC50 is more than 10 µM.
